{"sequences": {"note": "Protein sequences, listed by entry. Tags and fused reporters are not part of them.", "UniProt Q12809, whole entry": "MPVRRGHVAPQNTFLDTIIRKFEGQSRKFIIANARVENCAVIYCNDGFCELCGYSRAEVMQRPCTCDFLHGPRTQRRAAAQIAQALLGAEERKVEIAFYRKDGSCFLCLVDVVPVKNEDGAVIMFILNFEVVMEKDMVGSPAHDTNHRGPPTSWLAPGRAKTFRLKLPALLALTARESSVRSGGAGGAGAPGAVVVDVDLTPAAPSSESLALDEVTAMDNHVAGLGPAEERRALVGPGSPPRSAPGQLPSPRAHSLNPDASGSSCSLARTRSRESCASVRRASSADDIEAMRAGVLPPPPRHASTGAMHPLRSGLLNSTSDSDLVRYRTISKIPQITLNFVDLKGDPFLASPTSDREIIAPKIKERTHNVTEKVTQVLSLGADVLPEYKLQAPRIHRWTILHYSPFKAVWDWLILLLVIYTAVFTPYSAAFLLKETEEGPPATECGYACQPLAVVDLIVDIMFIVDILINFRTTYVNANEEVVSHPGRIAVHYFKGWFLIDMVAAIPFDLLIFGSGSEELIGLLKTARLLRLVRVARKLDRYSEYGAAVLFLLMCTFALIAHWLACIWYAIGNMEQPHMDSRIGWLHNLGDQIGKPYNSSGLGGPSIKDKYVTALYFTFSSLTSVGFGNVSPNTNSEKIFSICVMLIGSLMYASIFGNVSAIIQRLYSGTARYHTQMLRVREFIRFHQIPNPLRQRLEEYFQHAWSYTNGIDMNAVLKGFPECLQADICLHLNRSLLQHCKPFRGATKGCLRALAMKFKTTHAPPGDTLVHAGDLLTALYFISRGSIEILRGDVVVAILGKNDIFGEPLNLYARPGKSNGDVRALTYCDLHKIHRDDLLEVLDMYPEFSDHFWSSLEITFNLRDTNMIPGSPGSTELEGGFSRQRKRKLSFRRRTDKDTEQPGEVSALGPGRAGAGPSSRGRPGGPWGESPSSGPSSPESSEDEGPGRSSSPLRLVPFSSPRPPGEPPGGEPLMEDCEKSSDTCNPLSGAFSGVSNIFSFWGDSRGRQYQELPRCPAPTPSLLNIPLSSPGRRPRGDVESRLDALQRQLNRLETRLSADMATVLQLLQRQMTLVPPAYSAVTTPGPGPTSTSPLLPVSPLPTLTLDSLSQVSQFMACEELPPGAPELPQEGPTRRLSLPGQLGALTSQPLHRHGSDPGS"}, "source": "PubChem BioAssay AID1835", "about": "(Johns Hopkins Ion Channel Center, 2009)", "note": "Only a part is listed here, and it is no random draw. Active and inactive are the calls of the source.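 How the source made its calls: active means median signal gain over dofetilide-blocked control wells reaching their mean plus 3 SD, so readout 1 at least 0; inactive means the rest.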", "data": [{"biological_target": "Voltage-gated inwardly rectifying potassium channel KCNH2 (Homo sapiens) (UniProt Q12809)", "assay": "modulators restoring hERG flux under dofetilide – cell-based, thallium flux, duplicate retest, dofetilide IC70, confirmation (AID 1835)", "conditions": "hERG cell line, FluxOR thallium flux, dofetilide-blocked; at 10 µM; hits give high values", "values": [{"smiles": "CCOC(=O)N1CCC(Nc2ccc(OC)cc2)CC1", "activity increase over dofetilide control, less the hit threshold": "inactive: -1%"}]}]}
